Measured values as given in PubChem BioAssay AID1239 (SRMLSC, 2008).
The list shows a part of the results, in another mix than the full data. Some results for these compounds are left out of this collection, so the calls shown say nothing about other tests. Calls of active or inactive are those of the source. No stated cut-off is given here; in the data, active means fold change above about 3.3; inconclusive means no clear call, values can overlap the other calls; inactive means below that.

test: activators of NF-kB expression in neurons, primary screen, cell-based, HTS (AID 1239); details: human neuronal cells, NF-kB reporter expression; at 12.5 µM; hits give high values

| SMILES | fold change |
| --- | --- |
| C=CCN1CCN(CCOC(=O)C(O)(c2ccccc2)c2ccccc2)CC1 | inactive: 1.04 |
| CCN1CCCC(OC(=O)C2(O)c3ccccc3C=Cc3ccccc32)C1 (stereo not drawn) | inactive: 1.11 |
| CN(C)C1CCCC1OC(=O)C(O)(c1ccccc1)c1ccccc1 (stereo not drawn) | inactive: 1.03 |
| Cc1ccccc1C(=O)NCC1(N2CCCCC2)CCCCC1 | inactive: 0.87 |
| CC(C)N1C(=O)CC2(CCN(CCOC(=O)C(O)(c3ccccc3)c3ccccc3)CC2)C1=O | inactive: 0.79 |
| CN(C)c1cccc(C(=O)NCC2(N(C)C)CCCCC2)c1 | inactive: 0.94 |
| O=C(OC1CN2CCC1CC2)C(CO)(c1ccccc1)c1ccccc1 (stereo not drawn) | inactive: 1.18 |
| COc1cccc(C(=O)NCC2(N3CCCCC3)CCCCC2)c1 | inactive: 1.15 |
